The source of these data is patent US7642362B2, “Compounds as semaphorin inhibitors” (Dainippon Sumitomo Pharma Co., Ltd., priority 2002, dated 2010).

Chains of the proteins cited; added tags and fusions are not shown. Residues count along the entry.
UniProt O08665, 21-772 limits assumed: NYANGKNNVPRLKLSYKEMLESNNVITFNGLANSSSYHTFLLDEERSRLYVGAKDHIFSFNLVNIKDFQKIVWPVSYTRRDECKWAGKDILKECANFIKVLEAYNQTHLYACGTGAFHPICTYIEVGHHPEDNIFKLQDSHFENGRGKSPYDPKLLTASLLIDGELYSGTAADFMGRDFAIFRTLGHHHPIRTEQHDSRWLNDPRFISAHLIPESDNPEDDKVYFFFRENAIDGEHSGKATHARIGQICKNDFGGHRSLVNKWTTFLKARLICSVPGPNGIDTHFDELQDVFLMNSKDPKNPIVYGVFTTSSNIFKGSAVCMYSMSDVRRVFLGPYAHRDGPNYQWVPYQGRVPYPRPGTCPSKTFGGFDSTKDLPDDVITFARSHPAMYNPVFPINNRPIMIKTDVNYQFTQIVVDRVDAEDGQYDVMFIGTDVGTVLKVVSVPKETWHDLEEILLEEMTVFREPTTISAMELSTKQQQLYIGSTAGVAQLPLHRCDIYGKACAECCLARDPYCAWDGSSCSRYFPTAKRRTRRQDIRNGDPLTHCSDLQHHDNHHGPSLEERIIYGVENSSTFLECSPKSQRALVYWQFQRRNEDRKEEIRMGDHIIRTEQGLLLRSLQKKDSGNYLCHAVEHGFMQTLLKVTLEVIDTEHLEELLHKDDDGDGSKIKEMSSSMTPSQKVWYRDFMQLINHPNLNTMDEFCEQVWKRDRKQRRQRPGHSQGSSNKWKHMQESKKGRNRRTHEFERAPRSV

This assay deals with mouse semaphorin 3A (Sema3A) (Mus musculus, UniProt O08665). Put plainly: Suppressing action on the growth cone collapse activity of Sema3A in chick dorsal root ganglion culture. The format is cell-based. The note with it: E7 chick embryo dorsal root ganglions; compound added 1 hour before 3 units/ml mouse Sema3A; growth cone collapse rate after another 1 hour. The text has this:
The growth cone collapse activity of semaphorin described above means an activity to make growth cones disappear. This activity is observed after performing the following steps: cultivating nerve cells (generally tissue explants of ganglions) for a given period of time in vitro until the extended neurites as well as the growth cones at the edge of said neurites can be observed; and then adding thereto a given concentration (e.g. about 3 unit/ml; 1 unit/ml is defined as a semaphorin concentration in which 50% of the growth cones are collapsed) of semaphorin and cultivating for another given period of time (e.g. one hour). In order to get the extended neurites and the growth cones at the edge of said neurites ready for the observation, the nerve cells are generally cultivated for 10 to 20 hours in vitro, which duration can be altered according to a nerve variant and culture conditions. […]
A 96-well plate (Sumitomo Bakelite Co., Ltd.) pre-coated with polylysine was further coated with laminine (20 μg/ml of laminine, for 1 hour at room temperature). […] The cultures were then left for 15 minutes at room temperature so that the tissue sections were fixed, and collapse rates of the growth cones were microscopically determined. […]

In brackets after ≈: the same amount, converted by molar mass.

The term IC50 denotes the midpoint of a concentration-inhibition curve. The low end stands for inhibition by little substance, the high end for a need for much substance.

As for `Cc1cc(=O)c2c(o1)-c1c(c3c(c(O)c1C(=O)O)OC1(C)Cc4oc5cc(O)cc(C(=O)O)c5c(=O)c4C3O1)OC2` (stereo not shown), the IC50 is 4 µg/mL (≈ 7.11 µM).
